# Biological target: T1, Bile acid receptor (Homo sapiens) (UniProt Q96RI1)
# T1 sequence (whole entry): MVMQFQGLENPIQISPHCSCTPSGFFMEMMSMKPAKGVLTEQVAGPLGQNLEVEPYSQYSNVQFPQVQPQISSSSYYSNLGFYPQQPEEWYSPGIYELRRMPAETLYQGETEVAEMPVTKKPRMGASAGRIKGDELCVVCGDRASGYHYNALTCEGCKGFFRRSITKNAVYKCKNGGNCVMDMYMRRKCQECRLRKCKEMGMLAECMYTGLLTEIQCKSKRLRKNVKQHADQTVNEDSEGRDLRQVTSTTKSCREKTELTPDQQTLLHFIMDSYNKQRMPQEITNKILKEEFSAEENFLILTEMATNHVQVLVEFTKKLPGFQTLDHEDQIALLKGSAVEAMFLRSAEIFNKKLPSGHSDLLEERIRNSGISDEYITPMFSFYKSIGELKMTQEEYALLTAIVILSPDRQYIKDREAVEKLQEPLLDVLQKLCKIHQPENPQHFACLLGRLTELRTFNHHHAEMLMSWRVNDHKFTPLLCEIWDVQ
# Assay: Binding affinity to FXR (unknown origin)
# Conditions: filed as agonist
smiles,measurement,value
O=C(NC1CCCCC1)C(C1CCCCC1)n1c(-c2ccc(Cl)cc2)nc2ccccc21 (stereo unspecified),K,70 nM

# From ChEMBL document CHEMBL5247574, “Recent Progress on Bile Acid Receptor Modulators for Treatment of Metabolic Diseases” (J Med Chem, 2016)
